Experimental findings from PubChem BioAssay AID2777 (Johns Hopkins Ion Channel Center, 2010) are described below.

The entries are a selection whose mix differs from that of the whole data set. Calls of active or inactive are those of the source.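 How the source made its calls: active means rise or fall in signal beyond 3 SD of buffer-only wells in both replicate plates, either sign; inactive means the rest.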

The test system of this test is transient receptor potential cation channel C4 (TRPC4), mouse. The experiment in a line: membrane potential change in TRPC4 cells – cell-based, HEK293 TRPC4/mu-opioid, membrane potential dye, selectivity assay for TRPC6 inhibitor project, confirmation (AID 2777).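 Further: integrated kinetic ratio of fluorescence range over baseline.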 Particulars: membrane potential fluorescence, at 10 µM.
For `CN1CCCC(OC(=O)C(c2ccccc2)c2ccccc2)C1` (stereo not drawn), the activity change, negative = inhibition is active: 2.23%. As to `CCC1=CC2Cc3nc4ccc(Cl)cc4c(N)c3C(C1)C2` (stereo not drawn), the activity change, negative = inhibition was active: -28.5%.

In the case of `O=[N+]([O-])c1ccc(O)c(/C=N/Nc2ccc([N+](=O)[O-])cc2[N+](=O)[O-])c1`, the activity change, negative = inhibition is active: -15.3%.
